Cneo AK release – causes C. neoformans cell lysis; adenylate kinase release luminescence, 4 h; normalised: neutral wells 0, clomiphene wells 100; lysis activity, % at 15 µM; 360,000 compounds, 0.2% hits; AID 651654;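 active = mean lysis activity across replicates of at least 80%, whatever share of replicates individually reach that level; inactive = mean lysis activity below 80%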
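Test system: log-phase Cryptococcus neoformans yeast cells; Quantity: yeast cell density of 5 × 10^6 cells/mL; Buffer or medium: YPD; Doses: single compound concentration per well; Timing: 4 h at 37 °C static, read 1 h later; Measured by: AK luminescence; Read-out basis: lysis from increased AK signal; Control set: Clomiphene as positive control.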
miR122 inh – blocks miR-122 activity in Huh7 sensor cells | 340,000 compounds, 0.3% hits | activation (reporter increase), % at 12.5 µM | AID 602342 | Huh7 miR-122 Renilla luciferase sensor, 48 h; neutral wells = 0, positive control = 100;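 active = mean replicate activation score at least 90 and every replicate individually at or above 90; inconclusive = only one of the two criteria met; inactive = neither criterion met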;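 note: higher luciferase means less miR-122 activity so hits act as miR-122 inhibitors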
UUG fidelity – modulators of yeast start codon fidelity, primary screen, whole organism, S. cerevisiae, single point, plate reader; S. cerevisiae UUG-firefly luciferase reporter, luminescence/redox ratio; activity score, % at 18.7 µM; 0.13% of 350,000 active; AID 602363, 2012;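 active = replicate mean at a twofold rise or more, about +100% in these data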;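 also: firefly luciferase made from a UUG start codon reports start codon fidelity; reporter light over untreated wells divided by growth signal over untreated wells; some hits fall short of that in this replicate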
Statin myotox sup – protects C2C12 myotubes from simvastatin toxicity; ATP luminescence, 48 h; scaled: DMSO 0, geranylgeraniol control 100; rescue of ATP level, % at 7.49 µM; 330,000 compounds, 0.78% hits; AID 602340;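 active = mean ATP rescue above about 67%, or every replicate alone reaching that limit, limit read from the data, passing the limit was not always enough; inconclusive = no clear call, values can overlap the other calls; inactive = mean under the limit and some replicate under it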;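 note: myotubes were challenged with 10 µM simvastatin during compound exposure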
Numbers without * were called inactive; [ ] = dose if it differs, or a comment. Only some compounds are listed: those with a hit (about 1.2% of all), similar ones and a draw of the others.

How did CCOC(=O)c1ccc(N2C(=O)CC(N3CCN(C/C=C/c4ccccc4)CC3)C2=O)cc1 (centres undefined) do in these assays?
Cneo AK release: 0.4; miR122 inh: 0.1; UUG fidelity: 10.1; Statin myotox sup: 127.1*

Results for CCOc1ccc(C2SCC(=O)N2c2c(C)n(C)n(-c3ccccc3)c2=O)cc1 (centres undefined) ?
Cneo AK release: 0.2; miR122 inh: -2.3; UUG fidelity: -5.6; Statin myotox sup: 117.4*

What do the screens show for `Cc1c(N2C(=O)CSC2c2ccccc2)c(=O)n(-c2ccccc2)n1C` (centres undefined)?
Cneo AK release: -2.2; UUG fidelity: -4.3

Results for COc1ccc(NC(=O)Nc2ccc3c(c2)C(=O)N([C@@H](C)CO)C[C@@H](C)[C@@H](CN(C)C(=O)Nc2ccccc2)OCCCC[C@H](C)O3)cc1 ?
Cneo AK release: 1.6; miR122 inh: 16.9[16.7 µM]; UUG fidelity: 5.7; Statin myotox sup: -7.2

Results for C[C@@H]1CN([C@@H](C)CO)C(=O)Cc2cc(NS(=O)(=O)c3cn(C)cn3)ccc2O[C@H]1CN(C)C(=O)Nc1ccc(C(F)(F)F)cc1 ?
miR122 inh: 8.3[16.7 µM]; Statin myotox sup: 1.2

What do the screens show for `COc1ccc(C(CNC(=O)c2ccc(N3CCCC3=O)cc2)N(C)C)cc1` (centres undefined)?
Cneo AK release: -2.7; miR122 inh: -12.4; UUG fidelity: -3.3; Statin myotox sup: 84.0*

How did C[C@H](CO)N1C[C@H](C)[C@H](CN(C)C(=O)Nc2ccc(F)cc2)OCCCC[C@H](C)Oc2ccc(NC(=O)Cc3ccccc3)cc2C1=O do in these assays?
Cneo AK release: 2.1; miR122 inh: 2.6[16.7 µM]; UUG fidelity: -3.4; Statin myotox sup: 106.6*

Results for C[C@@H]1CN([C@@H](C)CO)C(=O)c2cc(NC(=O)Cc3ccccc3)ccc2O[C@@H](C)CCCCO[C@H]1CN(C)C(=O)C1CCCCC1 ?
Cneo AK release: 1.9; miR122 inh: -1.9[16.7 µM]; UUG fidelity: 14.7; Statin myotox sup: inconclusive

Results for C[C@H]1CCCCO[C@H](CN(C)C(=O)C2CCCCC2)[C@@H](C)CN([C@@H](C)CO)C(=O)c2cc(NC(=O)Cc3ccccc3)ccc2O1 ?
Cneo AK release: -0.2; miR122 inh: -9.9[16.7 µM]; UUG fidelity: 6.6; Statin myotox sup: 80.1*

Results for COCC(=O)N(C)C[C@H]1Oc2cc(C#CCC3CCCC3)ccc2S(=O)(=O)N([C@@H](C)CO)C[C@@H]1C ?
Cneo AK release: 2.1; UUG fidelity: -1.8; Statin myotox sup: 6.2

How did O=C(C[C@H]1CC[C@H](NC(=O)C2CC2)[C@@H](CO)O1)NC1CCC1 do in these assays?
Cneo AK release: -0.2; miR122 inh: 12.4[16.7 µM]; UUG fidelity: -3.3; Statin myotox sup: -6.0

What do the screens show for `Cc1noc(C)c1NC(=O)N(C)C[C@H]1Oc2c(NC(=O)Nc3ccccc3)cccc2C(=O)N([C@@H](C)CO)C[C@H]1C`?
miR122 inh: -2.1[16.7 µM]; UUG fidelity: -3.3

What do the screens show for `O=C(C[C@@H]1CC[C@H](NC(=O)c2ccncc2)[C@H](CO)O1)Nc1ccccc1`?
Cneo AK release: -2.4; UUG fidelity: -20.2; Statin myotox sup: -3.2

What do the screens show for `COc1ccccc1NS(=O)(=O)c1ccc(Br)s1`?
Cneo AK release: -1.2; miR122 inh: 59.7; UUG fidelity: -6.5; Statin myotox sup: 3.4

What do the screens show for `COc1cccc(NS(=O)(=O)c2ccc(Br)s2)c1`?
Cneo AK release: -0.2; miR122 inh: 218.3*; UUG fidelity: -7.4; Statin myotox sup: 7.2

How did COc1cccc(NS(=O)(=O)c2c(C)cc(C)cc2C)c1 do in these assays?
Cneo AK release: -2.6; miR122 inh: 398.8*; UUG fidelity: 20.9; Statin myotox sup: 3.2

How did O=C(O)C[C@H]1C[C@@H]2c3cc(NC(=O)Nc4ccccc4)ccc3O[C@@H]2[C@H](CO)O1 do in these assays?
Cneo AK release: 2.5; miR122 inh: 1.1[16.7 µM]; UUG fidelity: 3.7; Statin myotox sup: -2.7

Results for C[C@@H]1CN([C@H](C)CO)C(=O)Cc2cc(NS(=O)(=O)c3cn(C)cn3)ccc2O[C@@H]1CN(C)Cc1ccncc1 ?
Cneo AK release: -0.5; miR122 inh: -2.6[16.7 µM]; UUG fidelity: -2.5; Statin myotox sup: 2.3

What do the screens show for `COc1ccc(CN(C)C[C@@H]2Oc3ccc(NC(=O)C4CCCCC4)cc3C(=O)N([C@H](C)CO)C[C@@H]2C)cc1`?
Cneo AK release: 2.2; miR122 inh: -5.4[16.7 µM]; UUG fidelity: 16.7; Statin myotox sup: -38.5

How did CC1(Cc2ccc3c(c2)OCO3)C(=O)Nc2c(Cl)ccc(Cl)c21 (centres undefined) do in these assays?
Cneo AK release: -2.6; miR122 inh: -4.6; UUG fidelity: 16.2; Statin myotox sup: 87.7*

The closing two records of the part above open the next one:
What do the screens show for `COc1ccc(CN(C)C[C@@H]2Oc3ccc(NC(=O)C4CCCCC4)cc3C(=O)N([C@H](C)CO)C[C@@H]2C)cc1`?
Cneo AK release: 2.2; miR122 inh: -5.4[16.7 µM]; UUG fidelity: 16.7; Statin myotox sup: -38.5

How did CC1(Cc2ccc3c(c2)OCO3)C(=O)Nc2c(Cl)ccc(Cl)c21 (centres undefined) do in these assays?
Cneo AK release: -2.6; miR122 inh: -4.6; UUG fidelity: 16.2; Statin myotox sup: 87.7*

What do the screens show for `CC1(Cc2ccc3c(c2)OCO3)C(=O)Nc2ccc(-c3cccc(C(F)(F)F)c3)cc21` (centres undefined)?
Cneo AK release: -9.8; miR122 inh: -0.6; UUG fidelity: 6.5; Statin myotox sup: 12.3

What do the screens show for `COc1ccc2nc3sc(C(=O)NCCN4CCc5ccccc5C4)cc3cc2c1`?
Cneo AK release: -1.0; miR122 inh: -0.6; UUG fidelity: -3.8; Statin myotox sup: -20.5

What do the screens show for `CCN1CCN(C(=O)c2cc3cc4cc(OC)ccc4nc3s2)CC1`?
Cneo AK release: 2.1; miR122 inh: -1.8; UUG fidelity: -2.3; Statin myotox sup: 73.0*

Results for O=P(OC1CCCCC1)(OC1CCCCC1)C(O)c1ccccc1 (centres undefined) ?
Cneo AK release: -1.3; miR122 inh: 146.7*; UUG fidelity: 0.9; Statin myotox sup: 4.4

Results for C[C@@H](NC(=O)C[C@@H]1CC[C@@H]2[C@H](COC[C@H](O)CN2Cc2cc(F)ccc2F)O1)c1ccccc1 ?
Cneo AK release: 112.3*; miR122 inh: 3.6[16.7 µM]; UUG fidelity: 28.7; Statin myotox sup: 11.9

Results for CCCNC(=O)C[C@@H]1CC[C@H]2[C@@H](COC[C@H](O)CN2Cc2ccccc2F)O1 ?
Cneo AK release: 96.9*; miR122 inh: -0.2[16.7 µM]; Statin myotox sup: 7.5

Results for C[C@@H](NC(=O)C[C@H]1CC[C@@H]2[C@H](COC[C@@H](O)CN2Cc2cc(F)ccc2F)O1)c1ccccc1 ?
Cneo AK release: 1.8; miR122 inh: 5.3[16.7 µM]; UUG fidelity: -15.4; Statin myotox sup: 29.6

Results for C[C@@H](NC(=O)C[C@@H]1CC[C@H]2[C@@H](COC[C@@H](O)CN2Cc2cc(F)ccc2F)O1)c1ccccc1 ?
Cneo AK release: 101.4*; miR122 inh: 5.8[16.7 µM]; UUG fidelity: 34.3; Statin myotox sup: 11.7

How did CCCC#Cc1ccc([C@H]2[C@@H](C#N)N(C(=O)CN3CCOCC3)[C@@H]2CO)cc1 do in these assays?
Cneo AK release: -3.5; UUG fidelity: -3.8; Statin myotox sup: -12.5

How did CC(C)NC(=O)N(C)C[C@H]1Oc2ncc(C#Cc3ccncc3)cc2C(=O)N([C@H](C)CO)C[C@H]1C do in these assays?
Cneo AK release: 0.2; miR122 inh: -7.3[16.7 µM]; UUG fidelity: -10.2; Statin myotox sup: -1.6

Of the compounds above, these contain bromine:
What do the screens show for `COc1ccccc1NS(=O)(=O)c1ccc(Br)s1`?
Cneo AK release: -1.2; miR122 inh: 59.7; UUG fidelity: -6.5; Statin myotox sup: 3.4

What do the screens show for `COc1cccc(NS(=O)(=O)c2ccc(Br)s2)c1`?
Cneo AK release: -0.2; miR122 inh: 218.3*; UUG fidelity: -7.4; Statin myotox sup: 7.2
